Patent US9725445B2, “Cycloalkyl nitrile pyrazolo pyridones as Janus kinase inhibitors” (Merck Sharp & Dohme Corp., priority 2013, dated 2017)

Protein sequences, listed by entry. Tags and fused reporters are not part of them. Residues count along the entry.
UniProt O60674, 849-1124: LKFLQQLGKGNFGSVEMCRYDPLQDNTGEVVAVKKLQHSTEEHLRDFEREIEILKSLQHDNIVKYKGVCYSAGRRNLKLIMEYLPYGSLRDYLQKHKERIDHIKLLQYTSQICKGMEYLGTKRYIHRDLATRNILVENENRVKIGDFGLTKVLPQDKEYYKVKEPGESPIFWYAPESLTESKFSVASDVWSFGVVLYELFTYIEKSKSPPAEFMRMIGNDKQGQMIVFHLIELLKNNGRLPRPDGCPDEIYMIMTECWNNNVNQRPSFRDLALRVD

Target: JAK2 (Homo sapiens (Human), UniProt O60674)
Experiment: Jak biochemical HTRF assay, JAK2
Settings: recombinant GST-tagged catalytic domain
Method: Jak Biochemical HTRF Assay Protocol
The ability of compounds to inhibit the activity of JAK1, JAK2, JAK3, and Tyk2 was measured using a recombinant purified GST-tagged catalytic domain for each enzyme (Invitrogen JAK1 #M4290, JAK2 #M4290, JAK3 #M4290, Tyk2 #M4290) in an HTRF format biochemical assay. […] The basic assay protocol is as follows: First, 250 nL of diluted compounds in DMSO were dispensed into the wells of a dry 384-well Black plate (Greiner #781076) using a Labcyte Echo 555 acoustic dispenser. Subsequent reagent additions employed an Agilent Bravo. […] After equilibration, 2 μL of 10×ATP in 1× assay buffer was added to initiate the kinase reaction and the plates were shaken and then incubated at room temperature for 120 minutes. […] Plates were shaken and centrifuged and then incubated 60 minutes at room temperature and then read on a Perkin Elmer Envision (λex=337 nm, λem=665 and 615 nm, TRF delay time=20 μs). HTRF signal=10,000*665 nm reading/615 nm reading. After normalization to untreated controls, the percent inhibition of the HTRF signal at each compound concentration was calculated. The plot of percent inhibition versus the log of compound concentration was fit with a 4-parameter dose response equation to calculate IC50 values.
Final Reaction Conditions were:
Examples of the instant invention were evaluated in JAK1 and JAK2 in vitro binding assays.

Row | SMILES | IC50 [nM]
1 | N#C[C@@H]1CCCC[C@@H]1n1nc(Nc2ccc(F)cc2)c2c(=O)[nH]ccc21 (racemic) [Example 1-1, (cis)-2-{3-[(4-Fluorophenyl)amino]-4-oxo-4,5-dihydro-1H-pyrazolo[4,3-c]pyridin-1-yl}cyclohexanecarbonitrile] | 36
2 | N#C[C@H]1CCCC[C@@H]1n1nc(Nc2ccc(F)cc2)c2c(=O)[nH]ccc21 (racemic) [Example 2-1, (trans)-2-{3-[(4-Fluorophenyl)amino]-4-oxo-4,5-dihydro-1H-pyrazolo[4,3-c]pyridin-1-yl}cyclohexanecarbonitrile] | 7.5
3 | CC(C)OC(=O)C(C)(C)C(O)(c1ccc(Nc2nn([C@H]3CCCC[C@@H]3C#N)c3cc[nH]c(=O)c23)cc1)C(F)(F)F (single isomer, unassigned) [Example 3-119, (R or S) Isopropyl 3-(4-((1-((1S,2S)-2-cyanocyclohexyl)-4-oxo-4,5-dihydro-1H-pyrazolo[4,3-c]pyridin-3-yl)amino)phenyl)-4,4,4-trifluoro-3-hydroxy-2,2-dimethylbutanoate] | 18.6
4 | CC(C)OC(=O)C(C)(C)C(O)(c1ccc(Nc2nn([C@H]3CCCC[C@@H]3C#N)c3cc[nH]c(=O)c23)cc1)C(F)(F)F (single isomer, unassigned) [Example 3-120, (R or S) Isopropyl 3-(4-((1-((1S,2S)-2-cyanocyclohexyl)-4-oxo-4,5-dihydro-1H-pyrazolo[4,3-c]pyridin-3-yl)amino)phenyl)-4,4,4-trifluoro-3-hydroxy-2,2-dimethylbutanoate] | 2.7
5 | N#C[C@H]1CCCC[C@@H]1n1nc(Nc2ccc3c(c2)CC2(CC2)C3(O)C(F)(F)F)c2c(=O)[nH]ccc21 (single isomer, unassigned) [Example 3-123, (1S,2S)-2-(3-(((R or S)-1′-hydroxy-1′-(trifluoromethyl)-1′,3′-dihydrospiro[cyclopropane-1,2′-inden]-5′-yl)amino)-4-oxo-4,5-dihydro-1H-pyrazolo[4,3-c]pyridin-1-yl)cyclohexanecarbonitrile] | 0.29
6 | N#C[C@H]1CCCC[C@@H]1n1nc(Nc2ccc3c(c2)CC2(CC2)C3(O)C(F)(F)F)c2c(=O)[nH]ccc21 (single isomer, unassigned) [Example 3-124, (1S,2S)-2-(3-(((R or S)-1′-hydroxy-1′-(trifluoromethyl)-1′,3′-dihydrospiro[cyclopropane-1,2′-inden]-5′-yl)amino)-4-oxo-4,5-dihydro-1H-pyrazolo[4,3-c]pyridin-1-yl)cyclohexanecarbonitrile] | 0.88
7 | CC1c2cc(Nc3nn([C@H]4CCCC[C@@H]4C#N)c4cc[nH]c(=O)c34)ccc2S(=O)(=O)N1CC(F)(F)F (single isomer, unassigned) [Example 3-128, (1S,2S)-2-(3-(((R or S)-3-methyl-1,1-dioxido-2-(2,2,2-trifluoroethyl)-2,3-dihydrobenzo[d]isothiazol-5-yl)amino)-4-oxo-4,5-dihydro-1H-pyrazolo[4,3-c]pyridin-1-yl)cyclohexanecarbonitrile] | 1.9
8 | CC1c2cc(Nc3nn([C@H]4CCCC[C@@H]4C#N)c4cc[nH]c(=O)c34)ccc2S(=O)(=O)N1CC(F)(F)F (single isomer, unassigned) [Example 3-129, (1S,2S)-2-(3-(((R or S)-3-methyl-1,1-dioxido-2-(2,2,2-trifluoroethyl)-2,3-dihydrobenzo[d]isothiazol-5-yl)amino)-4-oxo-4,5-dihydro-1H-pyrazolo[4,3-c]pyridin-1-yl)cyclohexanecarbonitrile] | 2.6
9 | CC(C)(C)N1Cc2cc(Nc3nn([C@H]4CCCCC[C@@H]4C#N)c4cc[nH]c(=O)c34)ccc2S1(=O)=O (single isomer, unassigned) [Example 3-176, (1S,2S or 1R,2R)-2-{3-[(2-tert-butyl-1,1-dioxido-2,3-dihydro-1,2-benzisothiazol-5-yl)amino]-4-oxo-4,5-dihydro-1H-pyrazolo[4,3-c]pyridin-1-yl}cycloheptanecarbonitrile] | 8.6
10 | CC(C)(C)N1Cc2cc(Nc3nn([C@@H]4CCCCC[C@H]4C#N)c4cc[nH]c(=O)c34)ccc2S1(=O)=O (single isomer, unassigned) [Example 3-177, (1R,2R or 1S,2S)-2-{3-[(2-tert-butyl-1,1-dioxido-2,3-dihydro-1,2-benzisothiazol-5-yl)amino]-4-oxo-4,5-dihydro-1H-pyrazolo[4,3-c]pyridin-1-yl}cycloheptanecarbonitrile] | 0.31
11 | CC(C)(C)N1Cc2cc(Nc3nn([C@H]4CCCCC[C@H]4C#N)c4cc[nH]c(=O)c34)ccc2S1(=O)=O (single isomer, unassigned) [Example 3-178, (1R,2S or 1S,2R)-2-{3-[(2-tert-butyl-1,1-dioxido-2,3-dihydro-1,2-benzisothiazol-5-yl)amino]-4-oxo-4,5-dihydro-1H-pyrazolo[4,3-c]pyridin-1-yl}cycloheptanecarbonitrile] | 3
12 | CC(C)(C)N1Cc2cc(Nc3nn([C@@H]4CCCCC[C@@H]4C#N)c4cc[nH]c(=O)c34)ccc2S1(=O)=O (single isomer, unassigned) [Example 3-179, (1S,2R or 1R,2S)-2-{3-[(2-tert-butyl-1,1-dioxido-2,3-dihydro-1,2-benzisothiazol-5-yl)amino]-4-oxo-4,5-dihydro-1H-pyrazolo[4,3-c]pyridin-1-yl}cycloheptanecarbonitrile] | 2.2

The next lines start with the values.

Row | IC50 [nM] | SMILES
13 | 0.39 | CN(C)C(c1ccc(Nc2nn([C@H]3CCCC[C@@H]3C#N)c3cc[nH]c(=O)c23)cc1)C(F)(F)F (single isomer, unassigned) [Example 9-3, (1S,2S)-2-(3-(4-((S or R)-1-(Dimethylamino)-2,2,2-trifluoroethyl)phenylamino)-4-oxo-4,5-dihydropyrazolo[4,3-c]pyridin-1-yl)cyclohexanecarbonitrile]
14 | 0.25 | CN(C)C(c1ccc(Nc2nn([C@H]3CCCC[C@@H]3C#N)c3cc[nH]c(=O)c23)cc1)C(F)(F)F (single isomer, unassigned) [Example 9-4, (1S,2S)-2-(3-(4-((R or S)-1-(Dimethylamino)-2,2,2-trifluoroethyl)phenylamino)-4-oxo-4,5-dihydropyrazolo[4,3-c]pyridin-1-yl)cyclohexanecarbonitrile]
15 | 0.51 | CC(c1ccc(Nc2nn([C@H]3CCCC[C@@H]3C#N)c3cc[nH]c(=O)c23)cc1)n1nccn1 (single isomer, unassigned) [Example 15-21, (1S,2S)-2-[4-oxo-3-({4-[(1S or 1R)-1-(2H-1,2,3-triazol-2-yl)ethyl]phenyl}amino)-4,5-dihydro-1H-pyrazolo[4,3-c]pyridin-1-yl]cyclohexanecarbonitrile]
16 | 0.57 | CC(c1ccc(Nc2nn([C@H]3CCCC[C@@H]3C#N)c3cc[nH]c(=O)c23)cc1)n1nccn1 (single isomer, unassigned) [Example 15-22, (1S,2S)-2-[4-oxo-3-({4-[(1R or 1S)-1-(2H-1,2,3-triazol-2-yl)ethyl]phenyl}amino)-4,5-dihydro-1H-pyrazolo[4,3-c]pyridin-1-yl]cyclohexanecarbonitrile]
17 | 0.42 | CC(C)C(c1ccc(Nc2nn([C@H]3CCCC[C@@H]3C#N)c3cc[nH]c(=O)c23)cc1)n1nccn1 (single isomer, unassigned) [Example 15-30, (1S,2S)-2-[3-({4-[(1S or 1R)-2-methyl-1-(2H-1,2,3-triazol-2-yl)propyl]phenyl}amino)-4-oxo-4,5-dihydro-1H-pyrazolo[4,3-c]pyridin-1-yl]cyclohexanecarbonitrile]
